System: cerebellar granule neurons (CGNs)
Test: serum deprivation/KCl reduction-induced degeneration
Format: cell-based, mouse
Experimental: Kinase inhibitors (inhibitors of GSK3, JNK, EGFR, p38, and CaMKK) were tested for their capacity to protect cultured cerebellar granule neurons (CGNs) following serum deprivation/KCl reduction. Briefly, CGNs isolated from P7 mouse brain were cultured on PDL- and laminin-coated 96-well tissue culture dishes in medium containing serum and potassium (Basal Medium Eagles including 29 mM KCl and 10% FBS) at 37° C. After 24 hours in culture, cells were switched to “deprivation” medium (Basal Medium Eagles including 5 mM KCl), alone or in combination with various small molecule inhibitors as shown in Table 8. After a further 24 hours in culture, the neurons were fixed with 4% paraformaldehyde and stained with a neuronal marker (anti-class III β-Tubulin, Covance). Image acquisition was performed using the ImageXpress automated imaging system (Molecular Devices).

In the case of `O=C1NC(=O)C(c2ccccc2[N+](=O)[O-])=C1Nc1ccc(O)c(Cl)c1` [SB 415286], the “protection of cerebellar granule neurons from serum deprivation/KCl reduction” value was “protect cerebellar granule neurons from serum deprivation/KCl reduction”.

— US20160279190A1, “MODULATION OF AXON DEGENERATION” (GENENTECH, INC., priority 2008, published 2016)
